Values quoted from earlier work as cited in patent US20130211209A1, “ENERGY AWARE SENSOR MANAGEMENT FOR WEARABLE MEDICAL SYSTEMS OPTIMIZATION” (published 2013).

By UniProt entry, the sequences of proteins in these tests, tags left out.
UniProt P47712, whole entry: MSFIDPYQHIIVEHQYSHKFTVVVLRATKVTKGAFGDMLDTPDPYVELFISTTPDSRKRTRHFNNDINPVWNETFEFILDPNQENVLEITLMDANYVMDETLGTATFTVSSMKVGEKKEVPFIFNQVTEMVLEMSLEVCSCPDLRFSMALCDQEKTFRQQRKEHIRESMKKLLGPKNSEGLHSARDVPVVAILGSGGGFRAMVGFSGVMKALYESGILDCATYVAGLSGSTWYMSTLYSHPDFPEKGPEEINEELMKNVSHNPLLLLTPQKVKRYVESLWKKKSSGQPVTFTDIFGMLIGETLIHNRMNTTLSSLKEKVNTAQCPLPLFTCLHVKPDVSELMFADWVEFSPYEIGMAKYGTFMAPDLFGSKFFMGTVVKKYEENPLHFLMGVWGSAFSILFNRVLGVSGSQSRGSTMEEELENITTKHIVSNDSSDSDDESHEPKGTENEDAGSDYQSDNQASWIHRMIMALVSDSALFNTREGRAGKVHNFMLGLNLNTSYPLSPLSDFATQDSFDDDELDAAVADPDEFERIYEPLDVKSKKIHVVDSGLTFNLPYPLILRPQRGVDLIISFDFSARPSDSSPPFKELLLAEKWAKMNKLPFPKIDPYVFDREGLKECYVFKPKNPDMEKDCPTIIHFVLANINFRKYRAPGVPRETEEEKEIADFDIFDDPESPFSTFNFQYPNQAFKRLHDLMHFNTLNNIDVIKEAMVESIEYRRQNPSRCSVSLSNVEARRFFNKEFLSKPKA
UniProt O60733, whole entry: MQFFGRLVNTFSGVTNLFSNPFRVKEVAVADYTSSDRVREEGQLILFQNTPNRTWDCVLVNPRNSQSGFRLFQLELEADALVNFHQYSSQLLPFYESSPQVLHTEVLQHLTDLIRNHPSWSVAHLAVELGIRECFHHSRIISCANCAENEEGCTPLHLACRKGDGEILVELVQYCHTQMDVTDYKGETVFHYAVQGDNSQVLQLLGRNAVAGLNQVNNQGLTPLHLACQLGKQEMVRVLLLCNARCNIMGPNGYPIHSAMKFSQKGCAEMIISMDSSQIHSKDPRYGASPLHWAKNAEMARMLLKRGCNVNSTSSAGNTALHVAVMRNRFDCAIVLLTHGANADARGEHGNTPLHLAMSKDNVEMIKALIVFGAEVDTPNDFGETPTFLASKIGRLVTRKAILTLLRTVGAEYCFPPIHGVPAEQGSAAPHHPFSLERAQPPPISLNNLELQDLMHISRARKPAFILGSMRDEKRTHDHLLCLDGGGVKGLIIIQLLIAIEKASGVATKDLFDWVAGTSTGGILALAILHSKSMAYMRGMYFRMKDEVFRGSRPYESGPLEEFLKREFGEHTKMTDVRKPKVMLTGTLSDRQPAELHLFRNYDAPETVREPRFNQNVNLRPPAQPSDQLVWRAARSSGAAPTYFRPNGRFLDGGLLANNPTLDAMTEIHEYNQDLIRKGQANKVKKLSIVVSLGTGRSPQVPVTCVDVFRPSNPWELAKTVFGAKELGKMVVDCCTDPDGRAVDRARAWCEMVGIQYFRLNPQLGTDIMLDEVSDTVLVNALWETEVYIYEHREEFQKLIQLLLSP
UniProt Q8R3U1, whole entry: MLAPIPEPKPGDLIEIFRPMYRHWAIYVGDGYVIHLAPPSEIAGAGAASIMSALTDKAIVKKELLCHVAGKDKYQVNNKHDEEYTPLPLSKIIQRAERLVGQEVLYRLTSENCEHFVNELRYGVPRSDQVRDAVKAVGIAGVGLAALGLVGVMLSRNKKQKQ

Columns and labels:
cPLA2 = cPLA2 (Homo sapiens, UniProt P47712)
iPLA2 = iPLA2 (Homo sapiens, UniProt O60733)
PLA2G16 = PLA2G16 (Mus musculus, UniProt Q8R3U1)

CCCCC/C=C\C/C=C\C/C=C\C/C=C\CCCCOP(=O)(F)OC (stereo not drawn)
inhibits: inhibition of cPLA2 (cPLA2) | inhibition of iPLA2 (iPLA2) | inhibition of PLA2G16 (PLA2G16)
